Literature values, collected in US20140038836A1, “Novel Pharmacogene Single Nucleotide Polymorphisms and Methods of Detecting Same” (priority 2012, published 2014).

The chains behind the UniProt entries cited, without tags or fusion partners.
UniProt P08913, whole entry: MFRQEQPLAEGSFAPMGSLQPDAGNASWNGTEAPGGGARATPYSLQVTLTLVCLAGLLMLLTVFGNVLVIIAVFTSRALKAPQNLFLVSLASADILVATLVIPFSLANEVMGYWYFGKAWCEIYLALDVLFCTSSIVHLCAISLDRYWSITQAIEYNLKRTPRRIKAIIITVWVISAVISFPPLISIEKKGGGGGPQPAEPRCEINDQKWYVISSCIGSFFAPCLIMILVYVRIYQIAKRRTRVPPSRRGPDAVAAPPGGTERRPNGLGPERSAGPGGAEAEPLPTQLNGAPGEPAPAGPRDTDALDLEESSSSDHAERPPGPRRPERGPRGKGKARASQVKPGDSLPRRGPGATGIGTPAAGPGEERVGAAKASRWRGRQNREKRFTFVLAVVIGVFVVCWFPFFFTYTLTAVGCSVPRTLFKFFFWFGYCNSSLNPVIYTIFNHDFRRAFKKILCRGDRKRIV

Target: ADRA2A (alpha2A subtype alpha-2-adrenergic receptor) (Homo sapiens, UniProt P08913)
Conditions: antagonists of the alpha2A receptor

CC(C)NC[C@H](O)COc1cccc2ccccc12 (racemic) [propanolol]
rank order for antagonists: yohimbine>phentolamine=mianserine>chlorpromazine=spiperone=prazosin>propanolol>alprenolol=pindolol
